From patent US5843900A (priority 1995, dated 1998)

Amino acid sequences for entries named in this document (tags omitted).
UniProt O70526, whole entry, looked up: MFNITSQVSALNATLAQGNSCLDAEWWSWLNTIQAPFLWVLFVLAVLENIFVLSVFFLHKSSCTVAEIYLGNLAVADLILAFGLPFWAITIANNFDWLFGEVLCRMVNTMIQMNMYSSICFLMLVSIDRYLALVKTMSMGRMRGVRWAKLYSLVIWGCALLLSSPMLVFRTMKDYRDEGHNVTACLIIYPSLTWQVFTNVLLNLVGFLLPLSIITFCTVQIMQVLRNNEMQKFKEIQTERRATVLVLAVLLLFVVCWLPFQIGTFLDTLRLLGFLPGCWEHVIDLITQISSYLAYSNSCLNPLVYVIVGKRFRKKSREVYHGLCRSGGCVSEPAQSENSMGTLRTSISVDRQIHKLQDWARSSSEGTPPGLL
UniProt P35372, whole entry, looked up: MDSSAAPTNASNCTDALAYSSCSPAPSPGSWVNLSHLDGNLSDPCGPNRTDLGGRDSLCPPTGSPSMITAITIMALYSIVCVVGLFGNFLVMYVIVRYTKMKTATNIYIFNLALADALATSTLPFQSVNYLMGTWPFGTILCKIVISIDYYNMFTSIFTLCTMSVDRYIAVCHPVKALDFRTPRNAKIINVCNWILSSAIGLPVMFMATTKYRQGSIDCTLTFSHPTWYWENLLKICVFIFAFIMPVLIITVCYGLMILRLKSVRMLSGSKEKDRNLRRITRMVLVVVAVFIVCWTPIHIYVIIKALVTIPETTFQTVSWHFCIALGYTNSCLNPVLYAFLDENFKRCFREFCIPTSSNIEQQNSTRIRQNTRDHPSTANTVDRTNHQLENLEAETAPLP

Tests used:
[1] = molecular target: B2 receptor (Cavia porcellus, UniProt O70526); assay: B2 receptor antagonist activity on guinea pig ileum (inhibition of myotropic activity of bradykinin, pA2); settings: Schild pA2 against bradykinin; for BK2, pA2 (GPA): first part of Table I
[2] = molecular target: human mu receptor (Homo sapiens, UniProt P35372); assay: Human Mu Receptor Binding (3H-DAMGO, human clone membranes); settings: 3H-DAMGO 5nM, CHO-K1 clone hmu5 membranes

SMILES	BK2, pA2 (GPA) [1]	Mu Binding Human Clone [2]	BK2, pA2 (GPI) [1]
CN1CC[C@]23c4c5ccc(OCCCCCC(=O)N[C@H](CCCNC(=N)N)C(=O)N[C@@H](CCCNC(=N)N)C(=O)N6CCC[C@H]6C(=O)N6C[C@H](O)C[C@H]6C(=O)NCC(=O)N[C@@H](Cc6cccs6)C(=O)N[C@@H](CO)C(=O)N6Cc7ccccc7C[C@@H]6C(=O)N(CC(=O)N[C@@H](CCCNC(=N)N)C(=O)O)C6CCCCC6)c4O[C@H]2[C@@H](O)CC[C@H]3[C@H]1C5	8.5		
CN1CC[C@]23c4c5ccc(OCCCCCCCCCCCC(=O)N[C@H](CCCNC(=N)N)C(=O)N[C@@H](CCCNC(=N)N)C(=O)N6CCC[C@H]6C(=O)N6C[C@H](O)C[C@H]6C(=O)NCC(=O)N[C@@H](Cc6cccs6)C(=O)N[C@@H](CO)C(=O)N6Cc7ccccc7C[C@@H]6C(=O)N(CC(=O)N[C@@H](CCCNC(=N)N)C(=O)O)C6CCCCC6)c4O[C@H]2[C@@H](O)CC[C@H]3[C@H]1C5 [CP 695]	8.3		
CN1CC[C@]23c4c5ccc(O)c4O[C@H]2[C@@H](OCCCc2ccc(C(=O)N[C@H](CCCNC(=N)N)C(=O)N[C@@H](CCCNC(=N)N)C(=O)N4CCC[C@H]4C(=O)N4C[C@H](O)C[C@H]4C(=O)NCC(=O)N[C@@H](Cc4cccs4)C(=O)N[C@@H](CO)C(=O)N4Cc6ccccc6C[C@@H]4C(=O)N(CC(=O)N[C@@H](CCCNC(=N)N)C(=O)O)C4CCCCC4)cc2)C=C[C@H]3[C@H]1C5 [CP 905]	7.9	8.3	
CN1CC[C@]23c4c5ccc(O)c4O[C@H]2[C@@H](OCCCCCC(=O)N[C@H](CCCNC(=N)N)C(=O)N[C@@H](CCCNC(=N)N)C(=O)N2CCC[C@H]2C(=O)N2C[C@H](O)C[C@H]2C(=O)NCC(=O)N[C@@H](Cc2cccs2)C(=O)N[C@@H](CO)C(=O)N2Cc4ccccc4C[C@@H]2C(=O)N(CC(=O)N[C@@H](CCCNC(=N)N)C(=O)O)C2CCCCC2)CC[C@H]3[C@H]1C5 [CP 900]	8.0	8.6	
CN1CC[C@]23c4c5ccc(OCCCCCCCCCCCC(=O)N[C@H](CCCNC(=N)N)C(=O)N[C@@H](CCCNC(=N)N)C(=O)N6CCC[C@H]6C(=O)N6C[C@H](O)C[C@H]6C(=O)NCC(=O)N[C@@H](Cc6cccs6)C(=O)N[C@@H](CO)C(=O)N6Cc7ccccc7C[C@@H]6C(=O)N(CC(=O)N[C@@H](CCCNC(=N)N)C(=O)O)C6CCCCC6)c4O[C@H]2[C@@H](O)C=C[C@H]3[C@H]1C5	7.8		
CN1CC[C@]23c4c5ccc(OCCCCCCCCCCCC(=O)NCCCC[C@H](NC(=O)[C@@H]6CCCN6C(=O)[C@H](CCCNC(=N)N)NC(=O)[C@H](N)CCCNC(=N)N)C(=O)NCC(=O)N[C@@H](Cc6cccs6)C(=O)N[C@@H](CO)C(=O)N6Cc7ccccc7C[C@@H]6C(=O)N(CC(=O)N[C@@H](CCCNC(=N)N)C(=O)O)C6CCCCC6)c4O[C@H]2[C@@H](O)CC[C@H]3[C@H]1C5 [CP 841]		7.9	< 6
CN1CC[C@]23c4c5ccc(O)c4O[C@H]2[C@@H](OCc2ccc(C(=O)N[C@H](CCCNC(=N)N)C(=O)N[C@@H](CCCNC(=N)N)C(=O)N4CCC[C@H]4C(=O)N4C[C@H](O)C[C@H]4C(=O)NCC(=O)N[C@@H](Cc4cccs4)C(=O)N[C@@H](CO)C(=O)N4Cc6ccccc6C[C@@H]4C(=O)N(CC(=O)N[C@@H](CCCNC(=N)N)C(=O)O)C4CCCCC4)cc2)C=C[C@H]3[C@H]1C5 [CP 906]	7.9	8.3	
CN1CC[C@]23c4c5ccc(OCCCCCCCCCCCC(=O)NCCCC[C@H](NC(=O)[C@H](Cc6cccs6)NC(=O)CNC(=O)[C@@H]6C[C@@H](O)CN6C(=O)[C@@H]6CCCN6C(=O)[C@H](CCCNC(=N)N)NC(=O)[C@H](N)CCCNC(=N)N)C(=O)N6Cc7ccccc7C[C@@H]6C(=O)N(CC(=O)N[C@@H](CCCNC(=N)N)C(=O)O)C6CCCCC6)c4O[C@H]2[C@@H](O)CC[C@H]3[C@H]1C5		7.6	7.2
CN1CC[C@]23c4c5ccc(OCCCCCCCCCCCC(=O)NCCCC[C@H](NC(=O)[C@H](N)CCCNC(=N)N)C(=O)N6CCC[C@H]6C(=O)N6C[C@H](O)C[C@H]6C(=O)NCC(=O)N[C@@H](Cc6cccs6)C(=O)N[C@@H](CO)C(=O)N6Cc7ccccc7C[C@@H]6C(=O)N(CC(=O)N[C@@H](CCCNC(=N)N)C(=O)O)C6CCCCC6)c4O[C@H]2[C@@H](O)CC[C@H]3[C@H]1C5 [CP 723]		7.6	7.3
CN1CC[C@]23c4c5ccc(OCc6ccc(C(=O)NCCC(=O)N[C@H](CCCNC(=N)N)C(=O)N[C@@H](CCCNC(=N)N)C(=O)N7CCC[C@H]7C(=O)N7C[C@H](O)C[C@H]7C(=O)NCC(=O)N[C@@H](Cc7cccs7)C(=O)N[C@@H](CO)C(=O)N7Cc8ccccc8C[C@@H]7C(=O)N(CC(=O)N[C@@H](CCCNC(=N)N)C(=O)O)C7CCCCC7)cc6)c4O[C@H]2[C@@H](O)C=C[C@H]3[C@H]1C5	7.9		
CN1CC[C@]23c4c5ccc(O)c4O[C@H]2[C@@H](OCCCc2cccc(C(=O)N[C@H](CCCNC(=N)N)C(=O)N[C@@H](CCCNC(=N)N)C(=O)N4CCC[C@H]4C(=O)N4C[C@H](O)C[C@H]4C(=O)NCC(=O)N[C@@H](Cc4cccs4)C(=O)N[C@@H](CO)C(=O)N4Cc6ccccc6C[C@@H]4C(=O)N(CC(=O)N[C@@H](CCCNC(=N)N)C(=O)O)C4CCCCC4)c2)C=C[C@H]3[C@H]1C5 [CP 902]	8.7	8.4	
CN1CC[C@]23c4c5ccc(OCCCCCCCCCCCC(=O)N[C@H](CCCNC(=N)N)C(=O)N[C@@H](CCCNC(=N)N)C(=O)N6CCC[C@H]6C(=O)N6C[C@H](O)C[C@H]6C(=O)NCC(=O)N[C@@H](Cc6cccs6)C(=O)N[C@@H](CO)C(=O)N[C@@H](C(=O)N6[C@H](C(=O)N[C@@H](CCCNC(=N)N)C(=O)O)C[C@@H]7CCCC[C@@H]76)C6Cc7ccccc7C6)c4O[C@H]2[C@@H](O)CC[C@H]3[C@H]1C5	8.3		
CN1CC[C@]23c4c5ccc(OCCCCCCCCCCCC(=O)NCCCC[C@H](NC(=O)[C@H](CCCNC(=N)N)NC(=O)[C@H](N)CCCNC(=N)N)C(=O)N6C[C@H](O)C[C@H]6C(=O)NCC(=O)N[C@@H](Cc6cccs6)C(=O)N[C@@H](CO)C(=O)N6Cc7ccccc7C[C@@H]6C(=O)N(CC(=O)N[C@@H](CCCNC(=N)N)C(=O)O)C6CCCCC6)c4O[C@H]2[C@@H](O)CC[C@H]3[C@H]1C5 [CP 851]		8.1	2.6
CN1CC[C@]23c4c5ccc(OCCCCCCCCCCCCCCC(=O)N[C@H](CCCNC(=N)N)C(=O)N[C@@H](CCCNC(=N)N)C(=O)N6CCC[C@H]6C(=O)N6C[C@H](O)C[C@H]6C(=O)NCC(=O)N[C@@H](Cc6cccs6)C(=O)N[C@@H](CO)C(=O)N6Cc7ccccc7C[C@@H]6C(=O)N(CC(=O)N[C@@H](CCCNC(=N)N)C(=O)O)C6CCCCC6)c4O[C@H]2[C@@H](O)CC[C@H]3[C@H]1C5 [CP 844]	7.5		
CN1CC[C@]23c4c5ccc(OCc6cccc(C(=O)NCCC(=O)N[C@H](CCCNC(=N)N)C(=O)N[C@@H](CCCNC(=N)N)C(=O)N7CCC[C@H]7C(=O)N7C[C@H](O)C[C@H]7C(=O)NCC(=O)N[C@@H](Cc7cccs7)C(=O)N[C@@H](CO)C(=O)N7Cc8ccccc8C[C@@H]7C(=O)N(CC(=O)N[C@@H](CCCNC(=N)N)C(=O)O)C7CCCCC7)c6)c4O[C@H]2[C@@H](O)C=C[C@H]3[C@H]1C5	8.5	6.1	
CN1CC[C@]23c4c5ccc(OCCCCCCCCCCCC(=O)NCCCC[C@H](NC(=O)CNC(=O)[C@@H]6C[C@@H](O)CN6C(=O)[C@@H]6CCCN6C(=O)[C@H](CCCNC(=N)N)NC(=O)[C@H](N)CCCNC(=N)N)C(=O)N[C@@H](CO)C(=O)N6Cc7ccccc7C[C@@H]6C(=O)N(CC(=O)N[C@@H](CCCNC(=N)N)C(=O)O)C6CCCCC6)c4O[C@H]2[C@@H](O)CC[C@H]3[C@H]1C5 [CP 831]			7.2
CN1CC[C@]23c4c5ccc(O)c4O[C@H]2[C@@H](OCCCCCCCCCCCC(=O)N[C@H](CCCNC(=N)N)C(=O)N[C@@H](CCCNC(=N)N)C(=O)N2CCC[C@H]2C(=O)N2C[C@H](O)C[C@H]2C(=O)NCC(=O)N[C@@H](Cc2cccs2)C(=O)N[C@@H](CO)C(=O)N2Cc4ccccc4C[C@@H]2C(=O)N(CC(=O)N[C@@H](CCCNC(=N)N)C(=O)O)C2CCCCC2)CC[C@H]3[C@H]1C5 [CP 896]	8.7	8.3	
CN1CC[C@]23c4c5ccc(OCc6ccc(C(=O)NCCC(=O)Nc7ccc(CC(=O)N[C@H](CCCNC(=N)N)C(=O)N[C@@H](CCCNC(=N)N)C(=O)N8CCC[C@H]8C(=O)N8C[C@H](O)C[C@H]8C(=O)NCC(=O)N[C@@H](Cc8cccs8)C(=O)N[C@@H](CO)C(=O)N8Cc9ccccc9C[C@@H]8C(=O)N(CC(=O)N[C@@H](CCCNC(=N)N)C(=O)O)C8CCCCC8)cc7)cc6)c4O[C@H]2[C@@H](O)C=C[C@H]3[C@H]1C5 [CP 836]	7.5	6.1	
CN1CC[C@]23c4c5ccc(OCCCCCCCCC(=O)N[C@H](CCCNC(=N)N)C(=O)N[C@@H](CCCNC(=N)N)C(=O)N6CCC[C@H]6C(=O)N6C[C@H](O)C[C@H]6C(=O)NCC(=O)N[C@@H](Cc6cccs6)C(=O)N[C@@H](CO)C(=O)N6Cc7ccccc7C[C@@H]6C(=O)N(CC(=O)N[C@@H](CCCNC(=N)N)C(=O)O)C6CCCCC6)c4O[C@H]2[C@@H](O)CC[C@H]3[C@H]1C5	8.2		
CN1CC[C@]23c4c5ccc(OCc6cccc(C(=O)NCCC(=O)Nc7ccc(CC(=O)N[C@H](CCCNC(=N)N)C(=O)N[C@@H](CCCNC(=N)N)C(=O)N8CCC[C@H]8C(=O)N8C[C@H](O)C[C@H]8C(=O)NCC(=O)N[C@@H](Cc8cccs8)C(=O)N[C@@H](CO)C(=O)N8Cc9ccccc9C[C@@H]8C(=O)N(CC(=O)N[C@@H](CCCNC(=N)N)C(=O)O)C8CCCCC8)cc7)c6)c4O[C@H]2[C@@H](O)C=C[C@H]3[C@H]1C5 [CP 862]	8.4	6.3	
CN1CC[C@]23c4c5ccc(OCCCCCC(=O)N[C@H](CCCNC(=N)N)C(=O)N[C@@H](CCCNC(=N)N)C(=O)N6CCC[C@H]6C(=O)N6C[C@H](O)C[C@H]6C(=O)NCC(=O)N[C@@H](Cc6cccs6)C(=O)N[C@@H](CO)C(=O)N[C@@H](C(=O)N6[C@H](C(=O)N[C@@H](CCCNC(=N)N)C(=O)O)C[C@@H]7CCCC[C@@H]76)C6Cc7ccccc7C6)c4O[C@H]2[C@@H](O)CC[C@H]3[C@H]1C5	8.1		
